Target: T1, α4β7 (RPMI 8866 cells) (Homo sapiens, UniProt P13612+P26010)
T1 construct: host or cells: RPMI 8866 cells
T1 sequence (P13612 34-1032): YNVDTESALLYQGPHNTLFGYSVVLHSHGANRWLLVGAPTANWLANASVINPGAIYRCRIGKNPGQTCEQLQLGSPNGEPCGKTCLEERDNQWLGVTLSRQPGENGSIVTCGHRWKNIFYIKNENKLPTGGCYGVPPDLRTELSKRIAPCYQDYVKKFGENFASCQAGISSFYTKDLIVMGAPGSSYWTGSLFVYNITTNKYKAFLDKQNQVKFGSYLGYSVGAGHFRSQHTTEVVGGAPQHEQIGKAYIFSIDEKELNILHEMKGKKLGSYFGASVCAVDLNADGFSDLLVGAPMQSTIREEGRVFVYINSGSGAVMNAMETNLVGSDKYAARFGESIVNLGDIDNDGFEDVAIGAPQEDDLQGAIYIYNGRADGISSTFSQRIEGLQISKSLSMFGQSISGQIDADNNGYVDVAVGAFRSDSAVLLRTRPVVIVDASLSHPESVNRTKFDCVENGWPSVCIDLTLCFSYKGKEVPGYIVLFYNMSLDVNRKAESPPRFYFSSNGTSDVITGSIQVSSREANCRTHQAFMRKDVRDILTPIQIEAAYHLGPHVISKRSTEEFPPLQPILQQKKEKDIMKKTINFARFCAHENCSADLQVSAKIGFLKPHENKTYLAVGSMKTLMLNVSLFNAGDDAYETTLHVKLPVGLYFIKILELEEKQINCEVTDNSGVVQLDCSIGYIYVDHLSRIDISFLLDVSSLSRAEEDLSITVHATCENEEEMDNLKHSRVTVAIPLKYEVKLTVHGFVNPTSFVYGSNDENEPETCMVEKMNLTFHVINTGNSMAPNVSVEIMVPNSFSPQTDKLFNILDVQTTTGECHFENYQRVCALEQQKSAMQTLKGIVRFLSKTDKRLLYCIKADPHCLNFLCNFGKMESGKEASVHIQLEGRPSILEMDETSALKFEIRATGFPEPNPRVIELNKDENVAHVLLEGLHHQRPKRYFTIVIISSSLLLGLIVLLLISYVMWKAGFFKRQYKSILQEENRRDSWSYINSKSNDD
T1 sequence (P26010 20-798): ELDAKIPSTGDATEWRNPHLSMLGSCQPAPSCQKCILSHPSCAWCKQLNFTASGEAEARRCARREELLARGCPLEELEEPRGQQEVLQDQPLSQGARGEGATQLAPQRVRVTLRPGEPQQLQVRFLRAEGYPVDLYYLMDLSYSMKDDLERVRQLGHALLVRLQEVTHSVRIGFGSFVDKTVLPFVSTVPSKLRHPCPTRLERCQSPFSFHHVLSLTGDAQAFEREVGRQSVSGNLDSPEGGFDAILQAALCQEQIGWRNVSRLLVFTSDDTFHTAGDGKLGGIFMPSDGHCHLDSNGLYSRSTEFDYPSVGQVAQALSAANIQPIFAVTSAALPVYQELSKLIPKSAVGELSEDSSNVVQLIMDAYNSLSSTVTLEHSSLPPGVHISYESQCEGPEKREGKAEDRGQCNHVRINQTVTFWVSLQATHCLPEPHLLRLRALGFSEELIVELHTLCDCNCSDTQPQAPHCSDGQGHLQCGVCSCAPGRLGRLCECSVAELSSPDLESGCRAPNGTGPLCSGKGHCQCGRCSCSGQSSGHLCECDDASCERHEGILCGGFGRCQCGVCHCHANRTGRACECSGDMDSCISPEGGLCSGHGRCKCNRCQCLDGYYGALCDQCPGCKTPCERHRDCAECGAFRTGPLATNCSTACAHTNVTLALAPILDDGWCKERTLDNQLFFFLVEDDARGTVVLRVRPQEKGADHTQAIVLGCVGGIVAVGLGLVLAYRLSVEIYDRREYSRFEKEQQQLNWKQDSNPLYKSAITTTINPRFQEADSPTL
Test: α4β7-MAdCAM Cell Adhesion Assay
Type: cell-based
Settings: potency, read-out: Cell Adhesion A4B7
Procedure: α4β7-MAdCAM Cell Adhesion Assay
RPMI 8866 cells (Sigma #95041316) are cultured in RPMI 1640 HEPES medium (Invitrogen #22400-089) supplemented with 10% serum (Fetal Bovine Serum, Invitrogen #16140-071), 1 mM sodium pyruvate (Invitrogen #11360-070), 2 mM L-glutamine (Invitrogen #25030-081) and Penicillin-Streptomycin (Invitrogen #15140-122) at 100 units of penicillin and 100 lug of streptomycin per ml. The cells are washed two times in DMEM medium (ATCC #30-2002) supplemented with 0.1% BSA, 10 mM HEPES pH 7 and 1 mM MnCl2. The cells are re-suspended in supplemented DMEM medium at a density of 4×10^6 cells/ml.
A Nunc MaxiSorp plate was coated with rh MAdCAM-1/Fc Chimera (R&D #6065-MC) at 200 ng per well in 50 ul per well in 1×PBS and incubated at 4° C. overnight. The solution was then removed by shaking, blocked with 250 ul per well PBS containing 1% BSA, and incubated at 37° C. for 1 hr. The solution was removed by shaking. Peptides are diluted by serial dilution in a final volume of 50 ul per well (2× concentration). To each well, 50 ul of cells (200,000 cells) are added and the plate is incubated at 37° C., 5% CO2 for 30-45 min to allow cell adhesion. The wells are washed manually three times (100 ul per wash) with supplemented DMEM. After the final wash, 100 ul/well of supplemented DMEM and 10 ul/well of MTT reagent (ATTC cat#30-1010K) are added. The plate is incubated at 37° C., 5% CO2 for 2-3 hrs until a purple precipitate is visible. 100 ul of Detergent Reagent (ATTC cat#30-1010K) is added to each well. The plate is covered from the light, wrapped in Parafilm to prevent evaporation, and left overnight at room temperature in the dark. The plate is shaken for 5 min and the absorbance at 570 nm is measured. To calculate the dose response, the absorbance value of control wells not containing cells is subtracted from each test well.

CC(C)C[C@@H]1NC(=O)[C@H]([C@@H](C)O)NC(=O)[C@H](CC(=O)O)NC(=O)[C@H](CO)NC(=O)[C@H](CCCNC(=N)N)N(C)C(=O)[C@@H](C)NC(=O)[C@@H](C)NC1=O [compound 477]
IC50: > 10 µM

CC(C)C[C@@H]1NC(=O)[C@H]([C@@H](C)O)NC(=O)[C@H](CC(=O)O)NC(=O)[C@H](CO)NC(=O)[C@H](CCCNC(=N)N)N(C)C(=O)[C@@H](C)NC(=O)[C@@H](CC(N)=O)NC1=O [compound 479]
IC50: > 10 µM

CC(C)C[C@@H]1NC(=O)[C@H]([C@@H](C)O)NC(=O)[C@H](CC(=O)O)NC(=O)[C@H](CO)NC(=O)[C@H](CCCNC(=N)N)N(C)C(=O)[C@@H](C)NC(=O)[C@@H](CCC(=O)O)NC1=O [compound 484]
IC50: > 1 µM

CC(C)C[C@@H]1NC(=O)[C@H]([C@@H](C)O)NC(=O)[C@H](CC(=O)O)NC(=O)[C@H](CO)NC(=O)[C@H](CCCNC(=N)N)N(C)C(=O)[C@@H](Cc2ccccc2)NC(=O)[C@@H](C)NC1=O [compound 495]
IC50: > 10 µM
